{
  "source": "patent US10465196B2",
  "about": "“Treatment of C9FTD/ALS by targeting RNA expanded repeat sequences” (THE SCRIPPS RESEARCH INSTITUTE, priority 2014, dated 2019)",
  "system": "r(GGGGCC)66",
  "test": "Identification of cellular RNA targets by 1a-CA-biotin pull-down and qRT-PCR (competitive profiling)",
  "type": "cell-based",
  "settings": "(GGGGCC)66-expressing cells; normalized to untreated lysate",
  "data": [
    {"substance": "2-(5-(6-(4-(4-(bis(2-chloroethyl)amino)phenyl)butanamido)-2-(5-(2-oxohexahydro-1H-thieno[3,4-d]imidazol-4-yl)pentanamido)hexanamido)pentyl)-9-hydroxy-5,11-dimethyl-6H-pyrido[4,3-b]carbazol-2-ium [1a-CA-biotin]", "values": [
      {"measurement": "enrichment of r(GGGGCC)66 compared to 18S rRNA in pull-down fractions", "result": 80, "unit": "fold"}
    ]}
  ]
}
